Structures are written as SMILES.

In this assay the test system is A. viscosus. Put plainly: Inhibition of growth of A. viscosus. The note with it: dentifrice of increased pH compared with pH 7 paste.

`Cc1ccc([B-]2(c3ccc(C)c(Cl)c3)OC(=O)c3ncccc3[OH+]2)cc1Cl` [Compound 1]: the “antibacterial effect, growth inhibition of A. viscosus” value is recorded as “comparable to that of the pH 7 paste as well as commercial high quality toothpaste”.

For the origin of these results see patent publication US20120052025A1 (Colgate-Palmolive Company, priority 2009, published 2012).
